In patent publication US20250032490A1, “THERAPEUTIC REGIMENS FOR TREATMENT OF PAROXYSMAL NOCTURNAL HEMOGLOBINURIA” (Achillion Pharmaceuticals, Inc., priority 2017, published 2025):

Test system: PNH erythrocytes
Assay: CAP-mediated hemolysis assay with PNH erythrocytes (subject A)
Format: cell-based, human
Conditions: 400 μg/mL; two experiments
Protocol: Compound 1 and Compstatin were prepared as 15 mM stocks in DMSO. […] Complement-preserved normal human serum (NHS) from an individual donor of ABO blood group type AB (NHS-AB) was purchase from BioreclamationIVT (Westbury, NY). Gelatin veronal buffer (GVB), pH 7.3, without Ca^++ and Mg^++ (GVB^0) and 100 mM MgCl2 +100 mM EGTA (MgEGTA) were obtained from Complement Technology Inc. (Tyler, TX).
GVB^0·MgEGTA was prepared by mixing GVB^0 and 100 mM MgEGTA in a 9:1 ratio. PNH erythrocytes were used within five days of blood collection; before assay cells were collected by centrifugation at 800×g and 4° C. for 3 minutes and resuspended in fresh cold GVB^0·MgEGTA to a density of 5×10^8 cells/mL.
50 μL of NHS-AB was added to each well. The plates were mixed and incubated at room temperature for 5 minutes. […] Following incubation, PNH cells were removed by centrifugation at 800×g and 4° C. for 3 minutes, 100 μL supernatant per well was transferred to flat-bottom clear microtiter plates, and A405 of the supernatant was measured in a Molecular Devices Spectramax Plus plate reader. […]
Combinatorial interactions were analyzed via two methods. […]
Synergy and antagonism volumes were calculated separately as the summed volumes of peaks respectively above and below the Z=0 plane. Volumes were determined using 95% confidence limits to assure significance. […]

B1: Eculizumab: monoclonal antibody complement inhibitor of the terminal component C5; only approved therapy for PNH (antibody, chains of the INN, looked up)
heavy: QVQLVQSGAEVKKPGASVKVSCKASGYIFSNYWIQWVRQAPGQGLEWMGEILPGSGSTEYTENFKDRVTMTRDTSTSTVYMELSSLRSEDTAVYYCARYFFGSSPNWYFDVWGQGTLVTVSSASTKGPSVFPLAPCSRSTSESTAALGCLVKDYFPEPVTVSWNSGALTSGVHTFPAVLQSSGLYSLSSVVTVPSSNFGTQTYTCNVDHKPSNTKVDKTVERKCCVECPPCPAPPVAGPSVFLFPPKPKDTLMISRTPEVTCVVVDVSQEDPEVQFNWYVDGVEVHNAKTKPREEQFNSTYRVVSVLTVLHQDWLNGKEYKCKVSNKGLPSSIEKTISKAKGQPREPQVYTLPPSQEEMTKNQVSLTCLVKGFYPSDIAVEWESNGQPENNYKTTPPVLDSDGSFFLYSRLTVDKSRWQEGNVFSCSVMHEALHNHYTQKSLSLSLG
light: DIQMTQSPSSLSASVGDRVTITCGASENIYGALNWYQQKPGKAPKLLIYGATNLADGVPSRFSGSGSGTDFTLTISSLQPEDFATYYCQNVLNTPLTFGQGTKVEIKRTVAAPSVFIFPPSDEQLKSGTASVVCLLNNFYPREAKVQWKVDNALQSGNSQESVTEQDSKDSTYSLSSTLTLSKADYEKHKVYACEVTHQGLSSPVTKSFNRGEC
inhibition at maximal test concentration: 34% and 38%

Values joined by “and” are separate entries in the source; they are usually repeats but may differ in a detail not shown here. Equal values may be shown once.
